The IC50 is the concentration at which inhibition is half-maximal. Low readings indicate inhibition by little substance, high ones a need for much substance.

Amino acid sequences for entries named in this document (tags omitted). Residues count along the entry.
UniProt Q9Y233, 712-1055: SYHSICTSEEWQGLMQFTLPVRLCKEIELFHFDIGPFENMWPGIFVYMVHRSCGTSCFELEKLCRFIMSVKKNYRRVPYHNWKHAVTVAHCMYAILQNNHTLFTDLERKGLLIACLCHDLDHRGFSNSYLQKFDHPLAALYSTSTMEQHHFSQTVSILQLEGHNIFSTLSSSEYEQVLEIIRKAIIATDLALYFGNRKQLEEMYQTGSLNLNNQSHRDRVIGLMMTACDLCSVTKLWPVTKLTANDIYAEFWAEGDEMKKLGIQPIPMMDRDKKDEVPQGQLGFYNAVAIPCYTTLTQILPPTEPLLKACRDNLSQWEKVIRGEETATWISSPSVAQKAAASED

For one molecule, IC50 results are on record in PMC5962708, “Structure-Based Design, Synthesis, Biological Evaluation, and Molecular Docking of Novel PDE10 Inhibitors With Antioxidant Activities” (Frontiers in Chemistry, 2018).

This assay addresses T1, PDE10A catalytic domain (residues 446-789) (Homo sapiens, UniProt Q9Y233).
T1 construct: coding the catalytic domain (residues 446-789); inferred from the pET15b vector and the Ni-NTA purification) (N); made in house; host or cells: E. coli BL21 (Codonplus, Stratagene)
Briefly: PDE10A enzymatic assay (3H-cGMP hydrolysis, scintillation counting). In kind it is biochemical. Particulars: PDE10 inhibitory assay IC50 (μM), mean of three independent determinations; 3H-cGMP substrate. The method, then:
The recombinant pET15b-PDE10A plasmid coding the catalytic domain (residues 446-789) was subcloned and purified according to the following protocols previously reported (Li et al., [2015]). Then it was transferred into E. coli strain BL21 (Codonplus, Stratagene). The E. coli cells carrying the recombinant plasmid were cultured in an 2XYT medium (containing 100 μg/mL ampicillin and 30 μg/mL chloramphenicol) at 37°C until OD600 = 0.6-0.8. And then, 1 mM isopropyl-β-D-thiogalactopyranoside was added in to induce the PDE10A protein expression at 20°C for 24 h. The nickel nitriloacetic acid (Ni-NTA) column (Qiagen) was used for purifying PDE10A proteins. The concentration of the PDE10 fractions was estimated based on the absorbance at 280 nm (calculated by the ProtParam software).
The enzymatic activities of the catalytic domains of PDE10A were performed using ^3H-cGMP solution in the assay buffer of 50 mM Tris pH = 7.5, 4 mM MgCl2, 1 mM DTT, and ^3H-cGMP giving 20,000–30,000 cpm after the reaction terminated per assay. […] The radioactivity in the supernatant was measured in 2.5 mL Ultima Gold liquid scintillation cocktails (PerkinElmer) by a liquid scintillation counter (PerkinElmer 2910). The IC50 values of test compounds at PDE10A enzymes were measured by repeating of three independent experiments using the nonlinear regression method.

SMILES strings stand for the structures.

Regarding `COc1ccc(Cc2nccc3cc(OC)c(OC)cc23)cc1OC` [Papaverine, reference compound], the IC50 turned out to be 0.1 µM.
